Key:
[1] = tested on: human skin; settings: cited from earlier work
[2] = tested on: MUTZ-3 cells; experiment: GARD binary classification (SVM on GARD prediction signature, 200 transcripts); settings: Table 8; average SVM decision value derived from triplicates

SVM DV [2]: -2,07
Substance: 1-butanol
HP [1]: 6
Human potency [1]: 6

Source: patent publication EP3417074B1, “ANALYTICAL METHODS AND ARRAYS FOR USE IN THE SAME” (SenzaGen AB, priority 2016, dated 2017)
